By UniProt entry, the sequences of proteins in these tests, tags left out.
UniProt P14416, whole entry: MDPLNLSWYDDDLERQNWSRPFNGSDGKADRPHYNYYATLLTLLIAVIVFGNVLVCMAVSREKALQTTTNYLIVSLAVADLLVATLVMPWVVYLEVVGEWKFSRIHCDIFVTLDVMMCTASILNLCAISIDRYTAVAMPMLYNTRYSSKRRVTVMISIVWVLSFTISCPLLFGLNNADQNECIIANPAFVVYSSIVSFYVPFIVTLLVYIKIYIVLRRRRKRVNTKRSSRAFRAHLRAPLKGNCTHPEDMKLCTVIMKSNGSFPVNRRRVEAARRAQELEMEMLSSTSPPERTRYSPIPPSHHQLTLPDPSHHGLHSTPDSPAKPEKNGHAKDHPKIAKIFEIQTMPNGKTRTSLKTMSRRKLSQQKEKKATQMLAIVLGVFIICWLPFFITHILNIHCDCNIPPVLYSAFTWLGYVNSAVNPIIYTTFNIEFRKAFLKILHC
UniProt P21917, whole entry: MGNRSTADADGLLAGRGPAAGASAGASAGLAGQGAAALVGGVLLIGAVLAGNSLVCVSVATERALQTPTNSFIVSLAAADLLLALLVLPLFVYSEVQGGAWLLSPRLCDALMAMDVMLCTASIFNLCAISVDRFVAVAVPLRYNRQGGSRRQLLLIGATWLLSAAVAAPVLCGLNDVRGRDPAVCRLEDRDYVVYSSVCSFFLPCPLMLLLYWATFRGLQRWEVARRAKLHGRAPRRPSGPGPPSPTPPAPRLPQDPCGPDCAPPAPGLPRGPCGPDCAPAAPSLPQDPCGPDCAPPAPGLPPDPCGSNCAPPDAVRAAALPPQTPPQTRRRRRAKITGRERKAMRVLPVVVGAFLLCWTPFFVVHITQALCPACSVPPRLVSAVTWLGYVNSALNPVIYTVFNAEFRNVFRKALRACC
UniProt P21728, whole entry: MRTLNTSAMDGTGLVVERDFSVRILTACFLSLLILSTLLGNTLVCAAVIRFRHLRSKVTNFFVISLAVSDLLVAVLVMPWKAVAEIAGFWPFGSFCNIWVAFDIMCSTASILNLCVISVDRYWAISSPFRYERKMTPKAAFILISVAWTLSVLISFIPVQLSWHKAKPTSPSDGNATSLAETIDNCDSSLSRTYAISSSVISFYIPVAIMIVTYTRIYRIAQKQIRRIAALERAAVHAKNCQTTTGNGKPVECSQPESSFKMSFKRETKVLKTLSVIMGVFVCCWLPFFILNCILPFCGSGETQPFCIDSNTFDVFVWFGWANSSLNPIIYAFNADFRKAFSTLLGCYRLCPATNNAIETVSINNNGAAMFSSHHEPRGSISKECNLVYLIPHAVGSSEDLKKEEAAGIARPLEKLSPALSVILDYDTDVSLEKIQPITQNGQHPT
UniProt P21918, whole entry: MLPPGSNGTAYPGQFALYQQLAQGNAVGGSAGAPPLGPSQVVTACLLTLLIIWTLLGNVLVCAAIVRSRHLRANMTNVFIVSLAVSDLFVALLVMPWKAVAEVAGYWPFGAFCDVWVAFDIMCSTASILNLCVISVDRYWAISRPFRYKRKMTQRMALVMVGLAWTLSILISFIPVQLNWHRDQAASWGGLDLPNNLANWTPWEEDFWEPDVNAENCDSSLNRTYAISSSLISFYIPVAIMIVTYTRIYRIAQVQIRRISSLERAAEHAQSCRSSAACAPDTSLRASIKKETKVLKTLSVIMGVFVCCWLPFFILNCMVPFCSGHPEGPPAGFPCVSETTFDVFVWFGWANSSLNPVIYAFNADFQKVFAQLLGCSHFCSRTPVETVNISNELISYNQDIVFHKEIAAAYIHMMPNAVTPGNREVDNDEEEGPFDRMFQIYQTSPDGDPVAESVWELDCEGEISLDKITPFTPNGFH

According to ChEMBL document CHEMBL1152600, “Dibenzazecine scaffold rebuilding--is the flexibility always essential for high dopamine receptor affinities?” (Bioorg Med Chem, 2009):

Experiments:
Type in all cases: cell-based
[1] = molecular target: D(2) dopamine receptor (Homo sapiens, UniProt P14416); experiment: Displacement of [3H]spiperone from human dopamine D2L receptor expressed in CHO cells by scintillation counting
[2] = molecular target: D(4) dopamine receptor (Homo sapiens, UniProt P21917); experiment: Displacement of [3H]spiperone from human dopamine D4 receptor expressed in CHO cells by scintillation counting
[3] = molecular target: D(1A) dopamine receptor (Homo sapiens, UniProt P21728); experiment: Displacement of [3H]SCH23390 from human dopamine D1 receptor expressed in CHO cells by scintillation counting
[4] = molecular target: D(1B) dopamine receptor (Homo sapiens, UniProt P21918); experiment: Displacement of [3H]SCH23390 from human dopamine D5 receptor expressed in CHO cells by scintillation counting

| SMILES | Ki [1] [µM] | Ki [2] [µM] | Ki [3] [µM] | Ki [4] [µM] |
| --- | --- | --- | --- | --- |
| COc1ccc2c(c1)CCN1CCc3ccccc3C21 (configuration not stated) | > 10 | – | – | – |
| COc1ccc2c(c1)CCCN1Cc3ccccc3C21 (configuration not stated) | > 10 | – | – | – |
| Cc1ccccc1CC1c2ccc(O)cc2CCN1C (configuration not stated) | – | > 10 | – | – |
| CN1CCc2cc(O)ccc2CCc2ccccc2C1 | > 10 | – | > 10 | > 10 |
| CN1CCCc2cc(O)ccc2Cc2ccccc2C1 | > 10 | – | – | – |
